Laboratory results published in patent US10301371B2, “Cyclic monomer and dimer peptides having integrin antagonist activity” (Protagonist Therapeutics, Inc., priority 2014, dated 2019).

Target: T1, rh integrin α4β7 (Homo sapiens, UniProt P13612+P26010, DEL724-798)
T1 construct: purchased R&D Systems 5397-A30
T1 sequence (P13612 34-977 limits assumed): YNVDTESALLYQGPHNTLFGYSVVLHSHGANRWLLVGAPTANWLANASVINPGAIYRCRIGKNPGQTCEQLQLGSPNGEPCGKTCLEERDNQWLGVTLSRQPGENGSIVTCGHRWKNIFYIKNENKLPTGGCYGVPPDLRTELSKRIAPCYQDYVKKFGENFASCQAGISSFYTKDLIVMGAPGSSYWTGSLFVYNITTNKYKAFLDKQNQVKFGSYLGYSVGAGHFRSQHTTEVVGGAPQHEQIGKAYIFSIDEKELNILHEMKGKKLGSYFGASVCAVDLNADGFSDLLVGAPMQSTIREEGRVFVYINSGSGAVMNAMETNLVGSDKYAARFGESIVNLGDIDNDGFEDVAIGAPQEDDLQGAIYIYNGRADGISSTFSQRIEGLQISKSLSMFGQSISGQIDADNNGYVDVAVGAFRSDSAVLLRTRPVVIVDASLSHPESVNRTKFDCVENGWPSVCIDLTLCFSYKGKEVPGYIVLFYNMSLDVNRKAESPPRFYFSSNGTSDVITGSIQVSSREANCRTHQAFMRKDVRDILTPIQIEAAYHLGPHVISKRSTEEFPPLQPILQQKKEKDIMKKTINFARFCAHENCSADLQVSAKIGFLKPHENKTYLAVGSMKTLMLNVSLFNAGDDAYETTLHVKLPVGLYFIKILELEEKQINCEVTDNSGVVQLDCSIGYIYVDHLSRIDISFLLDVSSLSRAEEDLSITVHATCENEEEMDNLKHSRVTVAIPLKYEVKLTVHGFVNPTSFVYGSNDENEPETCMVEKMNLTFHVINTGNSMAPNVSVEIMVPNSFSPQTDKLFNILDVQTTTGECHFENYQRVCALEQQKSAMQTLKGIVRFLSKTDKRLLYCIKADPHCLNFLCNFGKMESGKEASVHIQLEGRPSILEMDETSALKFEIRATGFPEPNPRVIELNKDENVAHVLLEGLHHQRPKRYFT
T1 sequence (P26010 20-723 limits assumed): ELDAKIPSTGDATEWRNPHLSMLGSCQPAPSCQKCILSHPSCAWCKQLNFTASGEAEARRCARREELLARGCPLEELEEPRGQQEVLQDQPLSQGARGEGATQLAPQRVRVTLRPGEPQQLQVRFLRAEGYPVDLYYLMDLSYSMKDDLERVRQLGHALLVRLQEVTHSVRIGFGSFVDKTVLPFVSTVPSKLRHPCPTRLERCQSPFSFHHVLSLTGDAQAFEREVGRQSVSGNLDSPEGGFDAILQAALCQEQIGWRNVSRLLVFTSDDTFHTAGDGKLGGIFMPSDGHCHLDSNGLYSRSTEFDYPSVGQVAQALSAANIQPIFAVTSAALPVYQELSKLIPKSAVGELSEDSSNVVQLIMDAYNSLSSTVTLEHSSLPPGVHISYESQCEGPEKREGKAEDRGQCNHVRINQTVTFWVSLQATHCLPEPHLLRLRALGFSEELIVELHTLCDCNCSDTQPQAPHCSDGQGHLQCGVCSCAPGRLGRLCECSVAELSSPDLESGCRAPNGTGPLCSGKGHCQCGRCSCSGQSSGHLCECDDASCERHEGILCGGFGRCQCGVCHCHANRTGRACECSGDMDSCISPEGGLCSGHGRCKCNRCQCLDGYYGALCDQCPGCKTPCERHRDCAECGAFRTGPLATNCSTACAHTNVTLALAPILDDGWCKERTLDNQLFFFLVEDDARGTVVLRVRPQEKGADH
Assay: α4β7-MAdCAM Competition ELISA
Type: binding
Conditions: potency, read-out: ELISA a4b7
Method: α4β7-MAdCAM Competition ELISA
A nickel coated plate (Pierce #15442) is coated with rh integrin α4β7 (R&D Systems #5397-A30) at 800 ng/well and incubated at room temperature with shaking for 1 hr. The solution iss then remove by shaking and blocked with assay buffer (50 mM Tris-HCl pH7.6, 150 mM NaCl, 1 mM MnCl2 or MgCl2, 0.05% Tween-20 and 0.5% BSA) at 250 ul/well. The plate was then incubated at room temperature for 1 hr. Each well was washed 3 times with wash buffer (50 mM Tris-HCl pH7.6, 100 mM NaCl, 1 mM MnCl2 or MgCl2, 0.05% Tween-20). To each well was added 25 ul of a serial dilution (3-fold dilutions in assay buffer) of peptides starting at 20 μM. 25 ul of recombinant human MAdCAM-1 (R&D Systems #6056-MC) was then added to each well at a fixed concentration 20 nM. The final starting peptide concentration was 10 μM, and the final MAdCAM-1 concentration was 10 nM. The plates were then incubated at room temperature for 1 hr to reach binding equilibrium. The wells were then washed three times with wash buffer. 50 ul of mouse antihuman IgG1-HRP (Invitrogen # A10648) diluted in 1:2000 in assay buffer was then added to each well. The wells are incubated at room temperature for 45 min with shaking. The wells were then washed 3 times with wash buffer. 100 ul of TMB were then added to each well and closely observe during development time. The reaction was stopped with 2N H2SO4 and absorbance was read at 450 nm.

| SMILES | IC50 |
| --- | --- |
| CC(C)C[C@@H]1NC(=O)[C@H]([C@@H](C)O)NC(=O)[C@H](CC(=O)O)NC(=O)[C@H](CO)NC(=O)[C@H](CCCNC(=N)N)N(C)C(=O)[C@@H](C)NC(=O)[C@@H](C)NC1=O [compound 477] | 100 to 1000 nM |
| CC(C)C[C@@H]1NC(=O)[C@H]([C@@H](C)O)NC(=O)[C@H](CC(=O)O)NC(=O)[C@H](CO)NC(=O)[C@H](CCCNC(=N)N)N(C)C(=O)[C@@H](C)NC(=O)[C@@H](CC(N)=O)NC1=O [compound 479] | 100 to 1000 nM |
| CC(C)C[C@@H]1NC(=O)[C@H]([C@@H](C)O)NC(=O)[C@H](CC(=O)O)NC(=O)[C@H](CO)NC(=O)[C@H](CCCNC(=N)N)N(C)C(=O)[C@@H](C)NC(=O)[C@@H](CCC(=O)O)NC1=O [compound 484] | 100 to 1000 nM |
| CC(C)C[C@@H]1NC(=O)[C@H]([C@@H](C)O)NC(=O)[C@H](CC(=O)O)NC(=O)[C@H](CO)NC(=O)[C@H](CCCNC(=N)N)N(C)C(=O)[C@@H](Cc2ccccc2)NC(=O)[C@@H](C)NC1=O [compound 495] | 100 to 1000 nM |
